In this test the test system is anti-insulin B cells. As to the kind of experiment: BTK inhibitor treatment of 125Tg/NOD mice (Ibrutinib chow); B cell subsets assessed by flow cytometry in freshly isolated organs. Type of test: in vivo, mouse. The settings on record: Ibrutinib chow 5-10 weeks, placebo 83±32, p=0.57, no difference. On the procedure: After 5-10 weeks, spleen, draining pancreatic lymph nodes, and pancreas were harvested and flow cytometry was used to analyze B cell subsets. […] Mice were 12-13 weeks old at time of analysis.
B cell subsets were assessed by flow cytometry in freshly isolated organs as outlined below.
BM was eluted from long bones, and spleens and pancreatic draining lymph nodes (PLN) were macerated with HBSS (Invitrogen) plus 10% FBS (HyClone). Red blood cells were lysed using Tris-NH4Cl. Freshly isolated pancreata were digested with 3 mL of 1 mg/mL collagenase P diluted in HBSS for 30 min at 37° C., then tissue was disrupted using an 18-gauge needle. Ice cold HBSS plus 10% FBS was immediately added to inhibit collagenase activity. Cells were directly analyzed by flow cytometry. Flow cytometry Ab reagents were reactive with B220 (6B2), IgM^a (DS-1), CD19 (1D3), CD21 (7G6), CD23 (B3B4), CD93 (AA4.1), or IgM chain-specific) (Life Technologies). Biotin N-hydroxysuccinimide ester (Sigma) was used to biotinylate human insulin (Sigma) at pH 8.0 in bicine buffer. Streptavidin reagents (BD Biosciences) were used to detect biotinylated reagents. 7AAD (BD Biosciences) was used to identify dead cells. Sample acquisition was performed using an LSR II flow cytometer (BD Biosciences) and FlowJo software (Treestar) was used for analysis. […]
For orientation: A flow cytometer gives signals particle by particle.

In the case of `C=CC(=O)N1CCC[C@@H](n2nc(-c3ccc(Oc4ccccc4)cc3)c3c(N)ncnc32)C1` [Ibrutinib, (R)-1-(3-(4-amino-3-(4-phenoxyphenyl)-1H-pyrazolo[3,4-d]pyrimidin-1-yl)piperidin-1-yl)prop-2-en-1-one], the “T1 B cell subset numbers in the spleen” value was 63±47 ×104.

For the origin of these results see patent US20150141438A1, “METHODS FOR DELAYING OR PREVENTING THE ONSET OF TYPE 1 DIABETES” (Pharmacyclics, Inc., priority 2013, published 2015).
